Tests used:
splenocytes = assay: Cytokine production by cultured splenocytes of IP immunized mice (capture ELISA); assay type: in vivo
Protocol: Multivalent LNnT or Lewis^γ were conjugated with HSA (LNnT-HSA and Le^y-HSA) by Accurate Chemical and Scientific Corporation (NY). In both neoglycoproteins, 13 molecules of sugar conjugated to 1 HSA molecule. As controls, HSA (Sigma Chemical Co., Mo.), HSA adsorbed to alum (Intergen Company, NY; HSA-alum), or Dulbecco's PBS (Gibco BRL, NY) were prepared for immunization. Groups of four to six mice were immunized intraperitoneally or subcutaneously with Ags (10 μg of HSA) or saline. First and second boosting immunization were performed in the same fashion 2 and 3 weeks later, respectively. Protein concentration was determined by bicinchoninic acid (BCA) assay (Pierce, Ill.).
(§1) In flat-bottom 24-well culture plates (Corning), suspensions of 2.5×10^6 cells per ml were cultured with ConA (2 μg/ml) or without restimulation at 37° C. in supplemented RPMI 1640 medium as described above. 24, 72 and 120 hrs later, the cell cultures were then centrifuged, and the culture supernatants were harvested and kept frozen (−80° C.) until assayed. Pelleted cells were resuspended then stained with mAbs coupled to FITC or PE for immunofluorescent staining. IL-2, IL-4, IL-5, IL-10 and IFN-γ levels in supernatants from ConA-stimulated or unstimulated splenocytes were measured by capture ELISA. In brief, Maxisorp microtitre plates (Nunc Laboratories Ltd., Denmark) were coated with 50 μl of capture Ab at 2.0 μg/ml (rat anti-mouse IL-5, IL-10 and IFN-γ from Pharmingen and rat anti-mouse IL-4 from Endogen, Mass.) in Carbonate-bicarbonate buffer by overnight incubation at 4° C. Wells were then washed with PBS-T four times and blocked by addition of 10% FCS in PBS (2 hours, 37° C.). 50 μl of culture supernatants and appropriate recombinant standards were then added to individual well in duplicate. For standard curves, recombinant IL-5 (0 to 5,000 pg/ml), IL-10 (0 to 25,000 pg/ml), IFN-γ (0 to 20,000 pg/ml) (Pharmingen, Calif.) and IL-4 (0 to 1,500 pg/ml) (Endogen, Mass.) were used in duplicate. Following overnight incubation at 4° C., the wells were washed and appropriate 50 μl/well biotinylated detection Ab at 1 μg/ml (rat anti-mouse IL-5, IL-10 or IFN-γ from Pharmingin and rat anti-mouse IL-4 from Endogen) were added. For the detection of bound biotinylated Ab, 50 μl of streptavidin-alkaline phosphatase conjugate ( 1/2000, Pharmingen) was added to each well for 45 minutes, then washed. Level of cytokine in the wells was visualized by addition of p-nitrophenyl phosphate (Sigma) in glycine buffer. Absorbance was measured at 405 nm using a UVMax automatic microplate reader.

B220+ cells = assay: B7-1 and B7-2 expression on B220+ splenocytes (immunofluorescent staining, flow cytometry); assay type: in vivo, mice; details: freshly isolated splenocytes, IP immunized mice
Protocol: as §1
Following in vitro culture without restimulation, splenocytes were resuspended and incubated on ice for 15 min with mAbs as follows: anti-CD45R/B220 (RA3-6B2), anti-B7-1 (16-10A 1), and anti-B7-2 (GL-1) or isotype-matched controls. All mAbs were either FITC- or PE-conjugated (Pharmingen). After washing with Hanks' balanced salt solution (Gibco) containing 0.05% sodium azide, flow cytometry analysis was performed by using a FACSCalibur flow cytometer and Cell Quest software (Becton Dickinson, CA). Dead cells were excluded from analysis on the basis of propidium iodide (Molecular Probes, OR) staining. Lymphocytes were gated according to the physical characteristics of forward and side scatter and at least 10,000 events were acquired.

[1] = in vitro stimulation ConA, 72 hrs

## Human serum albumin [HSA, reference compound]
splenocytes; IL-4 deficient mice, without restimulation
  IL-5, IL-6, and IFN-γ production by splenocytes: not detected
splenocytes; [1]
  IFN-g: 3,577 ± 510 pg/ml
  IL-4: 31.81 ± 3.64 pg/mL
  IL-5: 78 ± 6 pg/mL
splenocytes; in vitro stimulation none, 24 hrs
  IL-5: 43 ± 2 pg/mL
splenocytes; in vitro stimulation none, 72 hrs
  IL-5: 42 ± 1 pg/mL
splenocytes; in vitro stimulation none, 120 hrs
  IL-5: 45 ± 6 pg/mL
B220+ cells
  percentage of the cells positive for both B7-2 and B220 molecules: 0.59±0.05 percentage
B220+ cells; n=6
  percentage of the cells positive for both B7-1 and B220 molecules: 0.95±0.07 percentage

From patent publication US20020142945A1, “Immunomodulatory methods using carbohydrate antigens” (President and Fellows of Harvard College, priority 1998, published 2002)
